## Measured affinities in a library of Ab-95 light chain variants

Source: Engelhart et al. 2022 (doi:10.1038/s41597-022-01779-4), MIT Lincoln Laboratory and A-Alpha Bio; data file from the FLAb repository.

Antigen: PDVDLGDISGINAS, a 14-residue peptide of the SARS-CoV-2 spike HR2 region.

Each scFv is VH, three GGGGS repeats, VL, as in the parent Ab-95, and differs from it in the CDRs of the light chain only.
VH: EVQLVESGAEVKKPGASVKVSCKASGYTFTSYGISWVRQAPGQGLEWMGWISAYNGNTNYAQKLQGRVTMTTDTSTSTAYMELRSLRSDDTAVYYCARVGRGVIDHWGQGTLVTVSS
VL: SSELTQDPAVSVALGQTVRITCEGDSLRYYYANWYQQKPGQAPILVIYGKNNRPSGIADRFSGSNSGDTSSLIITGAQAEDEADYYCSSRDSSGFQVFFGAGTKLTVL

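In library AAYL52, one, two or three CDR residues were substituted; doubles and triples were drawn at random. In AlphaSeq, yeast of one mating type display the scFv and yeast of the other type display the target. Mating (16 h, 30 °C) was followed by selection of diploids and sequencing of their barcodes. Scores were corrected for input abundance and mapped to Kd with protein pairs of known affinity run in the same pool. There are three technical replicates.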

Variants are written as CDR1, CDR2 and CDR3 of the light chain (limits as in the source). Parent: EGDSLRYYYAN, GKNNRPS, SSRDSSGFQVF. Kd is apparent (estimated from mating counts) and averaged on the log scale over replicates with a signal. Smaller is tighter. "nd" means that the variant was in the library but no mating with the target was seen in any replicate; the authors take this as a sign of poor binding, and no number exists. For reference, the parent read 200 nM as the reference entry and 180 nM as a member of this library. As a blank, each scFv also met three strains without target: over library AAYL52, 28% of these pairings were detected, typically at 8.2 µM and seldom below 800 nM.

Kd (apparent)	replicates with signal	CDR-L1	CDR-L2	CDR-L3
460 µM	1 of 3	EGDSLRIYFAN	GWNNRPS	SSRDSSGFQVF
94 nM	3 of 3	EGYSLRYDYAN	GKNNRPM	SSRDSSGFQVF
810 nM	3 of 3	EGDSLEYYYAN	GKNNRPS	SSRDSSGCWVF
72 nM	3 of 3	EGDSLRYLYAN	GKNNRPS	SSVDFSGFQVF
200 nM	3 of 3	AGDSLRYYYAN	GKNNRPS	ESRDVSGFQVF
nd	0 of 3	EGDSLRYTYAN	GKNNRPS	DSRDSSGFQVF
21 nM	3 of 3	PGVSLRYYYAN	GKNNRPS	SSEDSSGFQVF
830 nM	3 of 3	EGDSLRYYYAN	GMNNRPY	SSVDSSGFQVF
62 µM	2 of 3	EGDKLRYYYAN	GKNNRPS	SSRDSSGFQSN
58 nM	3 of 3	EGDSLRNYYAN	GKNNRPS	SCRDSSGFQMF
500 nM	3 of 3	EGDSLRYYYAN	GKNNRVS	SSRISSGFQVF
580 nM	2 of 3	IGDSLRYYYAN	GKEIRPS	SSRDSSGFQVF
1.3 µM	2 of 3	EGDSLLYVYAN	GKNNRRS	SSRDSSGFQVF
10 µM	1 of 3	EGDSLRKYYQF	GKNNRPS	SSRDSSGFQVF
460 nM	3 of 3	EGDSLRYQYHN	GKNNRPV	SSRDSSGFQVF
290 nM	3 of 3	EGDSLHYYYAN	GKNYRPS	SSRDSSGFQVF
840 nM	1 of 3	EGDSLRYYYAN	GKDNNPV	SSRDSSGFQVF
1.3 µM	3 of 3	EGDSLRYDYIN	GKNNRPS	SSRDSSGFFVF
3.3 µM	1 of 3	EGKSLRYYYAN	GKNNRPS	SSRDSSGQQVQ
200 nM	3 of 3	EGDSLRYYGAN	GKNNRPS	SSRFSSGFQSF
620 nM	3 of 3	EGDSLRYYYAN	GVNNRPS	SANDSSGFQVF
29 nM	3 of 3	EGDSLRYSYAN	GKNNRPS	SSRDSSGAQVV
2.7 µM	1 of 3	EGDSLRYYYAN	GRNNRDS	SSRDSSTFQVF
23 µM	2 of 3	EGDSLRRYYAN	VKSNRPS	SSRDSSGFQVF
46 nM	3 of 3	EGDSLCYEYAN	GKNNRPS	SSRDSSGFQVF
12 µM	2 of 3	EGDSLRYYYAN	GKSNRPS	LSRDSSGFQVE
5.3 µM	2 of 3	PGDSLGYYYAN	GKNNRPT	SSRDSSGFQVF
2.3 µM	3 of 3	EGDSLRYYYAN	GKNQRPS	SSRVSSGFQVF
17 µM	1 of 3	EGDSVRYDYAN	GKNNRPS	SSTDSSGFQVF
11 nM	3 of 3	EGDSLRYNYAN	GKNNRPS	CSRDSNGFQVF
1.3 µM	1 of 3	ENDKLRYYYAN	GKNNRPS	SSRDSMGFQVF
1.2 µM	3 of 3	EGDSLNYYYAN	GKNNRPS	SSRDMSGFQVP
8.4 nM	3 of 3	EGDSLRYYDAN	GLDNRPS	SSRDSSGFQVF
7.9 µM	3 of 3	EGDELRYYHAN	GKNNRPS	SSRDSSGFQVD
400 nM	3 of 3	EGIKLRYYYAN	GKNNRPS	SSRDSSGRQVF
11 µM	3 of 3	ELDSLRYYYAN	GKNNKPS	SSDDSSGFQVF
13 µM	1 of 3	EGDSLRYYYAN	GKNCRPS	SSRDSSGFQRF
18 µM	2 of 3	EGPSLRYYYAL	GKNNRPS	SSRDDSGFQVF
1.1 µM	3 of 3	EGDSLRYYYAN	GKNNRPS	TSRDSSGCQVM
350 nM	3 of 3	TGDSLRYYYAN	GKNNRPS	SSRNSSGFQGF
68 µM	3 of 3	PGDSLRYYYAN	GKNNRPS	SSIDSKGFQVF
49 µM	2 of 3	EGDPLVYYYAN	GTNNRPS	SSRDSSGFQVF
460 nM	3 of 3	EGDSLRYYYAN	GKNNRHS	SSRDSSGFQVW
4.6 µM	3 of 3	EGDSLRYYYAN	GKKNRPS	SLRDSSDFQVF
40 nM	3 of 3	EGDSLRYEYAN	GKNNRIS	SSRDASGFQVF
2.6 µM	3 of 3	EGHSLRYYYAN	GINNRPS	SSRDSRGFQVF
580 nM	3 of 3	EGDSLRYYYAN	GKNNRQS	SSRDTSGFQVF
470 nM	2 of 3	EGDSLRYYYAN	GKANRHS	SSRDSSGFQMF
nd	0 of 3	SGDSLRYYYAN	GKNNRPE	SSQDSSGFQVF
4.9 µM	3 of 3	EGDSLRYYYAN	GKNHRPS	SSRDSVGFQVN
1.1 µM	3 of 3	EGDSLRYYLAN	GKNLRPS	SSRCSSGFQVF
15 µM	2 of 3	EGDSLRYYSAN	GKGNRPS	SSRDSSGFQPF
44 µM	1 of 3	EGDSLRYYYDN	GKNNYPS	SSRDSSAFQVF

Excerpt, the first 5 entries:

{"CDR-L1": "EGDSLRIYFAN", "CDR-L2": "GWNNRPS", "CDR-L3": "SSRDSSGFQVF", "Kd (apparent)": "460 µM", "replicates with signal": "1 of 3"}
{"CDR-L1": "EGYSLRYDYAN", "CDR-L2": "GKNNRPM", "CDR-L3": "SSRDSSGFQVF", "Kd (apparent)": "94 nM", "replicates with signal": "3 of 3"}
{"CDR-L1": "EGDSLEYYYAN", "CDR-L2": "GKNNRPS", "CDR-L3": "SSRDSSGCWVF", "Kd (apparent)": "810 nM", "replicates with signal": "3 of 3"}
{"CDR-L1": "EGDSLRYLYAN", "CDR-L2": "GKNNRPS", "CDR-L3": "SSVDFSGFQVF", "Kd (apparent)": "72 nM", "replicates with signal": "3 of 3"}
{"CDR-L1": "AGDSLRYYYAN", "CDR-L2": "GKNNRPS", "CDR-L3": "ESRDVSGFQVF", "Kd (apparent)": "200 nM", "replicates with signal": "3 of 3"}